Results as given in patent US6380254B2, “Method and composition for treating and preventing pathogenic effects caused by intracellular calcium overload” (Leigh Biotechnology, Inc., priority 1994, dated 2002).

System: glycogen phosphorylase a
Assay: Intracellular calcium activity in post-anaerobic hepatocytes, expressed as glycogen phosphorylase a activity
Assay type: cell-based, rat
Details: mmols of PO^−3 liberated from glucose-1-phosphate per 1 million viable post-anaerobic cells; chlorpromazine 25 μM, glycine 20 mM, mixture less than 5 mM total; untreated 165.5
Experimental: Kinase is stimulated by increased intracellular calcium concentration via calmodulin. […] Expt. Thera., Vol. 238, pp. 186-191, 1986. Hepatocytes were incubated anaerobically for 90 minutes, then washed and resuspended in fresh medium containing either no additives (for the untreated cells), chlorpromazine (25 μM), glycine (20 mM or 150 mg per 100 ml), or the mixture of amino carboxylic acids (total amino carboxylic acid concentration was less than 5 mM or 65 mg per 100 ml). Cell viability was assessed as the fraction of lactate dehydrogenase retained intracellularly following a 90 minute aerobic incubation. Intracellular calcium activity was assessed in these post-anaerobic cells by the method described in Long and Moore, supra, and expressed in terms of glycogen phosphorylase a activity. […] A minimum of four observations were made and recorded. The results are reported in Table 7 as mean surviving fraction as follows: […]

`CN(C)CCCN1c2ccccc2Sc2ccc(Cl)cc21` [Chlorpromazine, chlorpromazine, reference compound] was tested, and the “GLYCOGEN PHOSPHORYLASE A ACTIVITY” value was 129.1 ± 36.5 mmols.
